Experimental data taken from US10294229B2, “Heteroaryl substituted aminopyridine compounds” (BRISTOL-MYERS SQUIBB COMPANY, priority 2015, dated 2019).

The chains behind the UniProt entries cited, without tags or fusion partners.
UniProt Q9NWZ3, whole entry: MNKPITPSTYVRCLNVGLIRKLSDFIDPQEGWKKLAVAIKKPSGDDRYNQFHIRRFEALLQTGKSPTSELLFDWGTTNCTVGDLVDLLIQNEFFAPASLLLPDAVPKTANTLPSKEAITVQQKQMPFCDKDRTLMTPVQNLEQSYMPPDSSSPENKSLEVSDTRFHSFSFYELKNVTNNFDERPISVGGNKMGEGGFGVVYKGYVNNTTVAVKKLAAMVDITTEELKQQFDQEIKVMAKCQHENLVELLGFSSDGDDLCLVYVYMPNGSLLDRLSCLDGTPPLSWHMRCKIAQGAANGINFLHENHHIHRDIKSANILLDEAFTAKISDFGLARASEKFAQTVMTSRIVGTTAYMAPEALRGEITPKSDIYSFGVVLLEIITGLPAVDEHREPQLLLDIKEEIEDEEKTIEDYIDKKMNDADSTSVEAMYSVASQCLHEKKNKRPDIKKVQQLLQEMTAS

Experiments:
[1] = system: Human whole blood stimulated with a TLR2 agonist (lipoteichoic acid), IL-6 levels; test: IRAK4 Whole Blood Assay; conditions: read-out: Whole Blood EC50, lipoteichoic acid 10 μg/mL
Protocol: Human whole blood containing the anti-coagulant ACD-A was plated in 384-well plate (25 μL/well) and incubated with compounds for 60 minutes at 37° C. in a 5% CO2 incubator. The blood was stimulated with a TLR2 agonist, 10 μg/mL final concentration of lipoteichoic acid (Invivogen, San Diego, Calif.) in 25 μL RPMI (Gibco) for 5 hours in a 5% CO2 incubator. At the end of the incubation, plates were centrifuged at 2300 rpm for 5 minutes. Supernatants were harvested and analyzed for IL-6 levels by Flow Cytometry beads assay (BD Biosciences, San Jose, Calif.).

Caco-2 cells = test: Caco-2 Permeability Assay; conditions: test compound 3 μM
Protocol: Caco-2 Permeability Assay
Thirteen to 27 days prior to assay, Caco-2 cells were seeded onto collagen-coated polycarbonate filter membranes in 24-well transwell plates at a density of 1.45×10^5 cells/cm^2, approximately 4.8×10^4 cells per well. The cells were grown in a culture medium consisting of DMEM supplemented with 10% fetal bovine serum, 10 mM HEPES, 1% nonessential amino acids, 2 mM L-glutamine, 100 U/mL penicillin-G, and 100 μg/mL streptomycin. The culture medium was replaced every 3 days and the cells were maintained at 37° C. in a 95% relative humidity and 5% CO2 atmosphere. The cells were evaluated for tight junction formation just prior to assay. The test compound was solubilized to 10 mM in 100% DMSO and diluted to 3 μM in assay buffer. Permeability studies were initiated by adding 200 μL assay buffer plus/minus compound to the apical transwell compartment and 600 μL assay buffer plus/minus compound to the basolateral compartment of the 24-well transwell low-binding cluster plate. For apical-to-basolateral (A to B) permeability (absorptive direction), buffer containing compound was placed in the apical compartment (donor wells), while buffer alone was placed in the corresponding basolateral compartments (receiver wells). […] The samples were subsequently analyzed by LC-MS/MS to determine concentrations of compound.

IRAK4 = IRAK4 (Homo sapiens (Human), UniProt Q9NWZ3); test: IRAK4 Inhibition Assay; conditions: read-out: IRAK4 IC50; ATP 500 μM; IRAK4 0.6 nM
Protocol: The assays were performed in U-bottom 384-well plates. The final assay volume was 30 μL prepared from 15 μL additions of enzyme and substrates (fluoresceinated peptide and ATP) and test compounds in assay buffer (20 mM HEPES pH 7.2, 10 mM MgCl2, 0.015% Brij 35 and 4 mM DTT). The reaction was initiated by the combination of IRAK4 with substrates and test compounds. The reaction mixture was incubated at room temperature for 60 min. and terminated by adding 45 μL of 35 mM EDTA to each sample. The reaction mixture was analyzed on the Caliper LABCHIP® 3000 (Caliper, Hopkinton, Mass.) by electrophoretic separation of the fluorescent substrate and phosphorylated product. Inhibition data were calculated by comparison to no enzyme control reactions for 100% inhibition and vehicle-only reactions for 0% inhibition. The final concentrations of reagents in the assays are ATP, 500 μM; FL-IPTSPITTTYFFFKKK peptide 1.5 μM; IRAK4, 0.6 nM; and DMSO, 1.6%.

Row | SMILES | EC50 [1] [nM] | Caco-2 Permeability (Caco-2 cells) [×10⁻⁶ cm/s] | IC50 (IRAK4) [nM]
1 | CC(C)Nc1cc(-n2ncc3cc(C#N)cnc32)ncc1C1=NOC(CCC(C)(C)O)C1 (single isomer, unassigned) [435, enantiomer 2] | 480 | 26.4 | –
2 | CC(C)Nc1cc(-n2ncc3cc(C#N)cnc32)ncc1-n1cc(CC(F)C(C)(C)O)nn1 (single isomer, unassigned) | 200 | 16 | 2
3 | CC(C)Nc1cc(-n2ncc3cc(N)cnc32)ncc1-n1cc(CCC(C)(C)O)nn1 | 460 | – | 20
4 | CC(C)Nc1cc(-n2ncc3cc(C#N)cnc32)ncc1C1=NOC(CCC(C)(C)O)C1 (single isomer, unassigned) [435, enantiomer 1] | 420 | – | –
